Calls of active or inactive are those of the source. The rule behind the calls is not given here.
Tested on: Mus musculus
Assay: Antinociceptive activity in CD-1 mouse assessed as reduction in formalin-stimulated paw flinching at 30 mg/kg, po administered 30 mins prior to formalin challenge measured up to 45 mins
Assay type: functional, organism-based

**Q.** For `CN1C(C)(C)CC(Nc2cc(F)c(S(=O)(=O)Nc3nccs3)cc2Cl)CC1(C)C`, which Activity is on record?
**A.** inactive
